# Data taken from US11389438B2 (CHDI Foundation, Inc., priority 2019, dated 2022).
# Sequences of proteins named here, by UniProt entry; tags and fusion partners are left off. A line that says so, or that is headed by a name, gives the form on record, which may keep a tag or linker.
# UniProt P42858, with tags, fused parts or gaps with the stated changes: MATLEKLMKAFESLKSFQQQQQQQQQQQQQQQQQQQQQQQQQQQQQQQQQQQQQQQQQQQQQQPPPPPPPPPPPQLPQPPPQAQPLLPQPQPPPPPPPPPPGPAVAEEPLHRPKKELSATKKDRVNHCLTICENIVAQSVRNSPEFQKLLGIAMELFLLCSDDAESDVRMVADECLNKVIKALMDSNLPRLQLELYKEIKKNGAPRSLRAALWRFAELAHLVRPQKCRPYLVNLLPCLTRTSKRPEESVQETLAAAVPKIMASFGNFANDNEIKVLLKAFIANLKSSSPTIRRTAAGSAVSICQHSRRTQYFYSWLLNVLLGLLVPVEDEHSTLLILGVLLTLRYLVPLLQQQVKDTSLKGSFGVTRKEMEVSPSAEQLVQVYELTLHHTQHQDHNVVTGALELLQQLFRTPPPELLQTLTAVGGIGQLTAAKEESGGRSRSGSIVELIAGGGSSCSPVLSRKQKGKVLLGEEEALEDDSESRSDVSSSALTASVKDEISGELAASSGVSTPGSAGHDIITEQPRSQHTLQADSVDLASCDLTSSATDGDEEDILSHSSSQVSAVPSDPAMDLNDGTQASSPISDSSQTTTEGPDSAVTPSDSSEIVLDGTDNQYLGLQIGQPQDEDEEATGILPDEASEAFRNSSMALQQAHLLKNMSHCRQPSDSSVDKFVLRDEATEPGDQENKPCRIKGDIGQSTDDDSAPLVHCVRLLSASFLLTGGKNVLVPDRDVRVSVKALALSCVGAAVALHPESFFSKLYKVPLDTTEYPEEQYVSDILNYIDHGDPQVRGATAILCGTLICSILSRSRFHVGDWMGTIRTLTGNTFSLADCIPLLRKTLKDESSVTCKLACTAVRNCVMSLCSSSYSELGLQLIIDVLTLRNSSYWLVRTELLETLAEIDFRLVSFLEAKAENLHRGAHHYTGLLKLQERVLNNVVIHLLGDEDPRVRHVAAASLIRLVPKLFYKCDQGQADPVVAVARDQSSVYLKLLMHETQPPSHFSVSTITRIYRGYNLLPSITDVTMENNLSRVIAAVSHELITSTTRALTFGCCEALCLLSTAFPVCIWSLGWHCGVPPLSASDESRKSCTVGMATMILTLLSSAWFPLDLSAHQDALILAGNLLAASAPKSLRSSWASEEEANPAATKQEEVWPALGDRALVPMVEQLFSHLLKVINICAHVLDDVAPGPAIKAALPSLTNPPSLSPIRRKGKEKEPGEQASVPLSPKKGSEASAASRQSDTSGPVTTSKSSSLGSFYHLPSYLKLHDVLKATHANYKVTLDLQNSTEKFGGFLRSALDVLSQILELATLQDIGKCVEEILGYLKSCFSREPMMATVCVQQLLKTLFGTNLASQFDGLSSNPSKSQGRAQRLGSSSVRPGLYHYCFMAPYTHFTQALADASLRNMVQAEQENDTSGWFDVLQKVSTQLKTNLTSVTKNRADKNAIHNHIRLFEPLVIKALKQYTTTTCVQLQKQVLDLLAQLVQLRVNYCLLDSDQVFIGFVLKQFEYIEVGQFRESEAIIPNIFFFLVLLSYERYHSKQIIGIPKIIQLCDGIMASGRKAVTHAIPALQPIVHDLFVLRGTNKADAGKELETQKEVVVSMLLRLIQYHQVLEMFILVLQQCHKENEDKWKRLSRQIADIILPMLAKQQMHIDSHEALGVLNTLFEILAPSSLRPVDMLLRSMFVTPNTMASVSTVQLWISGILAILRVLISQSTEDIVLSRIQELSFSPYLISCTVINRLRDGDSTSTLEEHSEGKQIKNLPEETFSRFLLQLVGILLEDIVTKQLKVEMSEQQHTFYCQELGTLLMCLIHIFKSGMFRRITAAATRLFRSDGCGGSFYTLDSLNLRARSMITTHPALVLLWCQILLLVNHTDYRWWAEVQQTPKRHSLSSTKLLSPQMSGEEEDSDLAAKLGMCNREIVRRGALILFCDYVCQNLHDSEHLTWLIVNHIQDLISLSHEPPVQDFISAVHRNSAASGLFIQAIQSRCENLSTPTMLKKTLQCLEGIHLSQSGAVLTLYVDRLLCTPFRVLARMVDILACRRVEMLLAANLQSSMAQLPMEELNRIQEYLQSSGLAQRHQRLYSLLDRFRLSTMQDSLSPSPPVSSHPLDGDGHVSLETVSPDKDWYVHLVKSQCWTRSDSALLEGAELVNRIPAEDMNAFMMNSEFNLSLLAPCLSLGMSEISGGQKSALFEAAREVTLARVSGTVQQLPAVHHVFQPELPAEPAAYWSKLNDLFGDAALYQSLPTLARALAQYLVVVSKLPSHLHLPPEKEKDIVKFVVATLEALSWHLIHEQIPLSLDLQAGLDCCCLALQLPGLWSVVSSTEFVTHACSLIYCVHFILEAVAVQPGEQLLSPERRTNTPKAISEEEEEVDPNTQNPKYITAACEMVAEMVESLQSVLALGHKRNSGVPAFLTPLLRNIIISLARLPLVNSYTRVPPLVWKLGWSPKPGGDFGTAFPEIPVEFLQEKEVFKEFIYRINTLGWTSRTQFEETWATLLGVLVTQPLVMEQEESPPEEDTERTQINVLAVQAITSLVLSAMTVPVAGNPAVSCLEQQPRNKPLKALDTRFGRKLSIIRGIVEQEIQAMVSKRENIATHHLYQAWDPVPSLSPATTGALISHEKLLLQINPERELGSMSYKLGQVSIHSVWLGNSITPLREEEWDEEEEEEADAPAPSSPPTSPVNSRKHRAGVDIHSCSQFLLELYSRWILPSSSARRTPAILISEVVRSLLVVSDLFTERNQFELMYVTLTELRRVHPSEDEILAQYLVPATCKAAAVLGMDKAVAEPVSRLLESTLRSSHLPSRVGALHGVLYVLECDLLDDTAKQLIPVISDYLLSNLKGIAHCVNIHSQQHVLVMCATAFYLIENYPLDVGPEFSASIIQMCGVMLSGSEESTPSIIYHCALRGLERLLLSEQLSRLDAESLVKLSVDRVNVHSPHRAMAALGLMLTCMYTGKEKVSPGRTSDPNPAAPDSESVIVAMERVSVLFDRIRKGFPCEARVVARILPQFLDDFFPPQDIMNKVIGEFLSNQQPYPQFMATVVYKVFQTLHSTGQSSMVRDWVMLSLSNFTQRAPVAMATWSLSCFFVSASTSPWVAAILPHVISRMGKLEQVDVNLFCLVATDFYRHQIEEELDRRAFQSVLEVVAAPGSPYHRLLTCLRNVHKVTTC
# UniProt P40337, whole entry: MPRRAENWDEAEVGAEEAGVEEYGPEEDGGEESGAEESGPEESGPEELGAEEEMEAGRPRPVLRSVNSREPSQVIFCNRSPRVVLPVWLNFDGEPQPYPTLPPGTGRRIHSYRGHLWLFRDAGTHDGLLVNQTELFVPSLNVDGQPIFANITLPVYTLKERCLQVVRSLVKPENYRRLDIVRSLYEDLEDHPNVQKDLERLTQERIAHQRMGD
# Legend:
# [1] = target: pre-formed polyQ46 or Exon1-polyQ46 aggregates (mHTT) (Homo sapiens, UniProt P42858, INS38QQQQQQQQQQQQQQQQQQQQQQQQQ); assay: Q46_RBA radioligand binding assay (displacement of [3H]-radioligand); settings: read-out: Q46_RBA IC50; class symbols
# Protocol: Binding of W to mHTT. A radioligand binding assay was developed to screen for compounds which can efficiently displace a radioligand detailed elsewhere (see, e.g., U.S. Patent Publication No. from US 2017/0292150) pre-formed polyQ46 or Exon1-polyQ46 aggregates (Q46_RBA).
# Aggregation of polyQ peptides is initiated by cleavage of the tag from a GST-polyQ46 or from a MBP-Exon1-polyQ46 fusion protein. The pre-formed aggregates are then incubated with compounds which compete with the [^3H]-radiolabelled ligand for binding to the aggregates. The readout is a scintillation based MicroBeta measurement of radioligand bound to aggregates. The activity was indicated as: +++, <100 nM; ++, 100-500 nM, +, >500 nM.
# [2] = target: VHL complex (VHL, Elongin B, Elongin C, Cul2, Rbx1) (Homo sapiens (Human), UniProt P40337); assay: VHL SPR assay; assay type: binding; settings: read-out: VHL SPR Kd; immobilized VHL complex
# From the text: Surface Plasmon Resonance (SPR) assays have been developed to test the affinity (KD) of VHL or CRBN-based compounds to respective recombinant ligase complex/domain.
# The assays are based on surface plasmon resonance (SPR), which enables to measure the changes of the local refractive index due to changes of molecular mass on a gold chip surface in the case of a binding event and in a flowing system. To detect binding between both partners, the respective E3 ligase is immobilized to the chip surface, while the test compounds are flown over the chip surface at a steady velocity. The detected changes in the RU response are indicative of the binding event and are concentration dependent.
# These tags provide the anchor for the capturing process to either an NTA or Streptavidin coated chip surface (immobilization level of 3,000-5,000 RU). Because of the rather complex structure of the VHL complex, it was additionally coupled to the chip surface by amino coupling to prevent any protein loss by disruption of the complex in the flowing system.
# To detect binding of compounds and extract dissociation constants KD for the tested compounds to the immobilized E3 ligase, concentration response curves of the compounds were recorded. Compounds were usually tested in 10-pt dilutions up to 20 μM final concentration in assay buffer and were flown over the chip at 30 μL/min. […]
Compound,IC50 [1],Kd [2]
Cc1ncsc1-c1ccc(CNC(=O)[C@@H]2C[C@@H](O)CN2C(=O)[C@@H](NC(=O)CCOCCOCCOCCOCCOCCOCCOCCOCCOCCOCCOCCOCCOc2ccc(C(=O)Nc3ccc4oc(-c5ccc(=O)n(C)n5)nc4c3)nc2)C(C)(C)C)cc1 [28],< 100 nM,
CC(C)C[C@H](NC(=O)[C@@H](O)[C@H](N)Cc1ccccc1)C(=O)NCCOCCOCCOCCOCCOCCOCCOCCOCCOCCOCCOCCOc1ccc(C(=O)Nc2ccc3oc(-c4ccc(=O)n(C)n4)nc3c2)nc1,< 100 nM,
Cc1ncsc1-c1ccc(CNC(=O)[C@@H]2C[C@@H](O)CN2C(=O)[C@@H](NC(=O)CCOCCOCCOCCOCCOCCOCCOCCOCCOCCOCCOCCOCCOc2ccc(C(=O)Nc3ccc4oc(-c5ccc(=O)n(C)n5)nc4c3)nc2)C(C)(C)C)cc1 [26],100 to 500 nM,< 100 nM
CC(C)C[C@H](NC(=O)[C@@H](O)[C@H](N)Cc1ccccc1)C(=O)NCCOCCOCCOCCOCCOCCOCCOCCOCCOCCOCCOCCOCCOCCOCCOCCOc1ccc(C(=O)Nc2ccc3oc(-c4ccc(=O)n(C)n4)nc3c2)nc1,100 to 500 nM,
